Assay results as given in US9670226B2, “Sesquiterpenoids” (National Institute of Biological Sciences, Beijing, priority 2014, dated 2017).

Test system: NF-κB activation
Assay: NF-κB activation (SAR analogs and biotin probes)
Conditions: in the presence of excess reducing agent dithiothreitol (DTT)

C=C1C(=O)O[C@@H]2[C@@H]3[C@@H](C[C@@]4(O)[C@]3(O)CC[C@]43C(=O)C[C@H]4C(=C)CC[C@H]5C(=C)C(=O)O[C@@H]5[C@H]43)C(=C)CC[C@@H]12 [Compound 223, (+)-Ainsliadimer A]
inhibitory activity against NF-κB activation: lost its inhibitory activity
